Reference: ChEMBL document CHEMBL2057126, “Discovery of new inhibitors of Cdc25B dual specificity phosphatases by structure-based virtual screening” (J Med Chem, 2012)
pIC50, pKi: −log10 of the molar value.

Experiments:
[1] = target: T1, M-phase inducer phosphatase 2 (Homo sapiens, UniProt P30305); experiment: Competitive inhibition of recombinant phosphatase activity of Cdc25B catalytic domain expressed in Escherichia coli BL21(DE3) using OMFP as substrate by Lineweaver-Burk plot analysis
T1 sequence (P30305 whole entry): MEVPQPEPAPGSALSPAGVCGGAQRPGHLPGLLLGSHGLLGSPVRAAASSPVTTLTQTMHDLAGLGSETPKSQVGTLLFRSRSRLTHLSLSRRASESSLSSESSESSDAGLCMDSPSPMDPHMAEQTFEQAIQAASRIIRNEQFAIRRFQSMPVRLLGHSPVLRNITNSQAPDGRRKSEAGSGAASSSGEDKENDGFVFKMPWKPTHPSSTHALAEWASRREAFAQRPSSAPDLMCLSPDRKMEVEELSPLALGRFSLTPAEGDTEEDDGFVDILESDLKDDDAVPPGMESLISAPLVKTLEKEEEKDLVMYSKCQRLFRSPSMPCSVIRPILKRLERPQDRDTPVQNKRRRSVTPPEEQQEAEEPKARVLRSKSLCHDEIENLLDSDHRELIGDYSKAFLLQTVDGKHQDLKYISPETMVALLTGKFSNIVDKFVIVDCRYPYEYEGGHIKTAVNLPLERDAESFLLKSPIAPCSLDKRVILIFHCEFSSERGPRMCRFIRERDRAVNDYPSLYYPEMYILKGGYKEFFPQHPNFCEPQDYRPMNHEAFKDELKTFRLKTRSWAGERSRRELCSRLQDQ
How it was run: (§1)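 Purified Cdc25B catalytic domain, 10 nM, assayed by rate of OMFP hydrolysis. For IC50, substrate fixed at 25 μM and inhibitor concentration varied; activity expressed as percent of no-inhibitor control. For Ki and inhibition type, Lineweaver–Burk plots built from 1–25 μM OMFP without or with fixed inhibitor concentrations. Averages ± SD of three determinations.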

[2] = target: M-phase inducer phosphatase 2 (Homo sapiens) (UniProt P30305); experiment: Inhibition of recombinant phosphatase activity of Cdc25B catalytic domain expressed in Escherichia coli BL21(DE3) using OMFP as substrate in presence of recombinant superoxide dismutase
[3] = target: T2, M-phase inducer phosphatase 1 (Homo sapiens, UniProt P30304); experiment: Inhibition of recombinant phosphatase activity of Cdc25A catalytic domain expressed in Escherichia coli BL21(DE3) using OMFP as substrate by spectrofluorimetric analysis
T2 sequence (P30304 whole entry): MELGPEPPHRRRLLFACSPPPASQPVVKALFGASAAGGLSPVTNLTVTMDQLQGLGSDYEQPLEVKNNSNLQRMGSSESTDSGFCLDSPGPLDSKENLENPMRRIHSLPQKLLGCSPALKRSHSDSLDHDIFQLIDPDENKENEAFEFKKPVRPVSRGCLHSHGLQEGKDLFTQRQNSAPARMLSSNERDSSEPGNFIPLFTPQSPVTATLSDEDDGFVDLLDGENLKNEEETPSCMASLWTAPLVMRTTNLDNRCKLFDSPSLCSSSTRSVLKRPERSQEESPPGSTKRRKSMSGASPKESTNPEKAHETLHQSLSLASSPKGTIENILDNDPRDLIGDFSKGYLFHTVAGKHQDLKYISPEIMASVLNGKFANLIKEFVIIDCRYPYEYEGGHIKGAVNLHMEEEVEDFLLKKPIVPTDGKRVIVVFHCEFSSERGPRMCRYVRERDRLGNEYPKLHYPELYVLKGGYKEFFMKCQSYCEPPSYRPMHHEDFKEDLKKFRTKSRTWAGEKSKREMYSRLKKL
How it was run: (§2)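 Purified recombinant Cdc25A catalytic domain; phosphatase activity measured as OMFP hydrolysis versus inhibitor concentration to derive IC50, with Ki calculated from kinetic measurements. Results are averages ± SD of three determinations.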

[4] = target: T2, M-phase inducer phosphatase 1; experiment: Inhibition of recombinant phosphatase activity of Cdc25A catalytic domain expressed in Escherichia coli BL21(DE3) using OMFP as substrate by Lineweaver-Burk plot analysis; how it was run: as §2
[5] = target: T1, M-phase inducer phosphatase 2; experiment: Inhibition of recombinant phosphatase activity of Cdc25B catalytic domain expressed in Escherichia coli BL21(DE3) using OMFP as substrate by spectrofluorimetric analysis; how it was run: as §1

## O=C(O)CCc1c2ccc(=O)c(O)c-2oc2c(O)c(O)ccc12
[1]
  pKi: 7.10
[2]
  pIC50: 6.48
[3]
  pIC50: 6.62
[4]
  pKi: 7.15
[5]
  pIC50: 7.00
